# scFv variants of Ab-14 (heavy chain) against a SARS-CoV-2 spike peptide

All variants were tested on one target, the spike HR2 peptide PDVDLGDISGINAS (SARS-CoV-2).

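The parent was found by panning a naive human phage display library on the peptide. These sequences belong to a second round, designed from the earlier measurements on random variants of the parent. Group labels follow the data file (Ctrl: baseline library sampled from a position-specific scoring matrix, with some repeated check sequences; Rand: our label for a block that the file lists under HC and that is probably the random mutants of the ten best first-round binders; En: ensemble of fine-tuned language models; GP: Gaussian process model; GPLM: also part of the Gaussian process libraries; HC: hill climbing; Gen: genetic algorithm; Gibbs: Gibbs sampling; a sequence that several methods proposed may carry one label only). AlphaSeq pools MATa yeast showing the antibodies with MATalpha yeast showing the peptide. Binding brings cells together so that they mate, and sequencing counts the barcode pairs among the diploids. Read counts were normalised to the haploid input and turned into Kd by a linear fit to BCL2-family pairs of known affinity, for each replicate. There are six technical replicates.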

Parent: Ab-14, a human scFv built as VH, a (GGGGS)3 linker, VL. Only the CDRs of the heavy chain vary.
VH: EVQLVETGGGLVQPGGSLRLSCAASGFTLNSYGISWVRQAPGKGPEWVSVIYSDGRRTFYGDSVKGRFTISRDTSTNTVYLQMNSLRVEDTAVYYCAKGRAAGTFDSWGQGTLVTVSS
VL: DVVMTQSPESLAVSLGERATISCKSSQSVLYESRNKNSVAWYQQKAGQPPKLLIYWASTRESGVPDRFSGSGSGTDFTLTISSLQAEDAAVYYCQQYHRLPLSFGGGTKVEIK

Each variant is given by its three heavy chain CDRs, as the data file delimits them; those of the parent are GFTLNSYGIS, VIYSDGRRTFYGDSVK, GRAAGTFDS. Numbers give log10(Kd / nM), so 0 is 1 nM and 3 is 1 µM. Smaller is tighter. The mean shown is taken over the replicates in which the pair was detected. An entry "not detected" has no value in the source: the pair was not observed among the diploids in any replicate. This suggests poor binding but is not conclusive.

{"CDR-H1": "GFDLNEYGIS", "CDR-H2": "VIYADGRRTFYADSFK", "CDR-H3": "GEIAGTFDQ", "group": "En_HC", "mean, log10 nM": "-0.48", "seen in": "6 of 6"}
{"CDR-H1": "GFDLNEYGIS", "CDR-H2": "VIYADGKRTVYADSVK", "CDR-H3": "GNVAGTFDT", "group": "En_Gen", "mean, log10 nM": "-0.52", "seen in": "6 of 6"}
{"CDR-H1": "GFNLNSYGIS", "CDR-H2": "VIYSDGRRTFYADSVK", "CDR-H3": "GKEAGTFDS", "group": "GP_Gen", "mean, log10 nM": "0.19", "seen in": "6 of 6"}
{"CDR-H1": "GFWLNEYGIS", "CDR-H2": "VIYSDGMRTFYIDSVK", "CDR-H3": "GRAAGTFDS", "group": "GP_Gibbs", "mean, log10 nM": "not detected", "seen in": "0 of 6"}
{"CDR-H1": "GFTLNSYGIS", "CDR-H2": "VIYSDGRSTFYSDSVK", "CDR-H3": "GRAIGTFDS", "group": "Rand", "mean, log10 nM": "not detected", "seen in": "0 of 6"}
{"CDR-H1": "GFDLNEYGIS", "CDR-H2": "VIYADGMRKAYADSVK", "CDR-H3": "GQVAGTFDV", "group": "En_Gen", "mean, log10 nM": "-0.87", "seen in": "6 of 6"}
{"CDR-H1": "GIDLQEYGVS", "CDR-H2": "VIYADGMRQSYADSVK", "CDR-H3": "GQHAGYLDK", "group": "En_Gibbs", "mean, log10 nM": "2.45", "seen in": "1 of 6"}
{"CDR-H1": "GFDLNEYGIS", "CDR-H2": "VIYADGRRTFYSDSVK", "CDR-H3": "GANGGTFDI", "group": "En_HC", "mean, log10 nM": "-0.13", "seen in": "6 of 6"}
{"CDR-H1": "GFDLNEYGIS", "CDR-H2": "VIYADGKRTFYADSVK", "CDR-H3": "GQLAGTFDS", "group": "En_HC", "mean, log10 nM": "-0.23", "seen in": "6 of 6"}
{"CDR-H1": "GFTLNSYGIS", "CDR-H2": "VIYSDGRRTFYGDSVK", "CDR-H3": "GKEAGTFDT", "group": "GPLM_Gen", "mean, log10 nM": "0.51", "seen in": "6 of 6"}
{"CDR-H1": "GFDLDEYGIS", "CDR-H2": "VIYADGKRTAYTDSVK", "CDR-H3": "GNQAGTFDV", "group": "En_Gen", "mean, log10 nM": "-0.20", "seen in": "6 of 6"}
{"CDR-H1": "GFDLNEYGIS", "CDR-H2": "VIYADGMRKAYADSVK", "CDR-H3": "GNVAGTFDI", "group": "En_Gen", "mean, log10 nM": "-1.15", "seen in": "6 of 6"}
{"CDR-H1": "GFDINEYGIS", "CDR-H2": "VIYADGMRRAYSQSVK", "CDR-H3": "GHGEDLYLD", "group": "En_Gibbs", "mean, log10 nM": "not detected", "seen in": "0 of 6"}
{"CDR-H1": "GFTLDQYGIS", "CDR-H2": "VIYADGRRTFYGDAVK", "CDR-H3": "GRATGTFDS", "group": "Ctrl", "mean, log10 nM": "2.43", "seen in": "1 of 6"}
{"CDR-H1": "GFQLNEYGIS", "CDR-H2": "VIYSDGRRTFYGDSVK", "CDR-H3": "GQAAGTFDN", "group": "GP_Gibbs", "mean, log10 nM": "1.30", "seen in": "6 of 6"}
{"CDR-H1": "GFDLDEYGIS", "CDR-H2": "VIYADGQRTAYADSVK", "CDR-H3": "GNEAGTFDM", "group": "En_Gen", "mean, log10 nM": "0.07", "seen in": "6 of 6"}
{"CDR-H1": "GFDLNSYGIS", "CDR-H2": "VIYSDGRRTFYTDSVK", "CDR-H3": "GQEAGTFDS", "group": "GP_Gen", "mean, log10 nM": "0.03", "seen in": "6 of 6"}
{"CDR-H1": "GFSLNSYGIS", "CDR-H2": "VIYSDGRRTFYSDSVK", "CDR-H3": "GEAAGTFDK", "group": "GPLM_Gen", "mean, log10 nM": "0.28", "seen in": "6 of 6"}
{"CDR-H1": "GTTINQYGIS", "CDR-H2": "VIYSDGRRTNYGDSVK", "CDR-H3": "GRQTGTFDS", "group": "Ctrl", "mean, log10 nM": "not detected", "seen in": "0 of 6"}
{"CDR-H1": "DFKLNSYGIS", "CDR-H2": "VIYSDGRRTFYGDSVK", "CDR-H3": "GSAAGLFDS", "group": "Ctrl", "mean, log10 nM": "not detected", "seen in": "0 of 6"}
{"CDR-H1": "GFNLNSYGIS", "CDR-H2": "VIYSDGRRTFYGDKVK", "CDR-H3": "GRQAGTFDS", "group": "GP_Gen", "mean, log10 nM": "2.54", "seen in": "3 of 6"}
{"CDR-H1": "GFVLNNYGIS", "CDR-H2": "VIYADGRRTFYGDSVK", "CDR-H3": "GRTAGTFDS", "group": "GP_Gibbs", "mean, log10 nM": "-0.23", "seen in": "6 of 6"}
{"CDR-H1": "GFTLNSYGIS", "CDR-H2": "VIYADGRRTAYGDSVK", "CDR-H3": "GRVAGTSDS", "group": "Ctrl", "mean, log10 nM": "-0.16", "seen in": "2 of 6"}
{"CDR-H1": "GFTLNSYGIS", "CDR-H2": "VIYSDGRRTFYGDSVK", "CDR-H3": "GRVEGTFDS", "group": "Ctrl", "mean, log10 nM": "not detected", "seen in": "0 of 6"}
{"CDR-H1": "GFDLEEYGIS", "CDR-H2": "VIYADGMRVSYTNTVK", "CDR-H3": "GQNSMISTA", "group": "En_Gibbs", "mean, log10 nM": "not detected", "seen in": "0 of 6"}
{"CDR-H1": "GKKLDEYGIS", "CDR-H2": "VIYADGKRKFYSNSVK", "CDR-H3": "GGMAGGTTV", "group": "En_Gibbs", "mean, log10 nM": "not detected", "seen in": "0 of 6"}
{"CDR-H1": "GFTLNSYGIS", "CDR-H2": "VIYADGRRTFYGDSVK", "CDR-H3": "GRAAGTFDF", "group": "GPLM_Gen", "mean, log10 nM": "0.54", "seen in": "6 of 6"}
{"CDR-H1": "GFNINEYGIS", "CDR-H2": "VIYADGQRLSYDDNVK", "CDR-H3": "GGITGTFLS", "group": "En_Gibbs", "mean, log10 nM": "not detected", "seen in": "0 of 6"}
{"CDR-H1": "GFDLNEYGIS", "CDR-H2": "VIYADGMRTQYADSVK", "CDR-H3": "GNQAGTFDV", "group": "En_Gen", "mean, log10 nM": "0.35", "seen in": "6 of 6"}
{"CDR-H1": "GFDLNSYGIS", "CDR-H2": "VIYSDGRRTFYGDSVK", "CDR-H3": "GSAAGTFDS", "group": "GPLM_Gen", "mean, log10 nM": "0.68", "seen in": "6 of 6"}

Picked from the list: the 4 lowest averages where every replicate gave a value.

CDR-H1	CDR-H2	CDR-H3	group	mean, log10 nM	seen in
GFDLNEYGIS	VIYADGMRKAYADSVK	GNVAGTFDI	En_Gen	-1.15	6 of 6
GFDLNEYGIS	VIYADGMRKAYADSVK	GQVAGTFDV	En_Gen	-0.87	6 of 6
GFDLNEYGIS	VIYADGKRTVYADSVK	GNVAGTFDT	En_Gen	-0.52	6 of 6
GFDLNEYGIS	VIYADGRRTFYADSFK	GEIAGTFDQ	En_HC	-0.48	6 of 6

Of ten entries with the parent sequence, four were seen in most replicates (averages 0.34 to 2.37), three in one and three in none, so single entries are noisy. A sequence measured in both rounds can read differently, since the two assays cover different ranges. Three control strains display no target. For all heavy chain designs, 1% of the pairings with them gave a signal, with a median of 2.08 and one signal in twenty below 0.84, so weak values seen in few replicates may be background. In the paper, a design with two or fewer of six values counts as a poor binder.

Values reported by Li et al. 2023, doi:10.1038/s41467-023-39022-2 (FLAb copy).